According to article PMC6645225 (ACS Omega, 2018):

Biological target: T1, CYP1A1 (Homo sapiens, UniProt P04798)
T1 sequence (P04798 1-512): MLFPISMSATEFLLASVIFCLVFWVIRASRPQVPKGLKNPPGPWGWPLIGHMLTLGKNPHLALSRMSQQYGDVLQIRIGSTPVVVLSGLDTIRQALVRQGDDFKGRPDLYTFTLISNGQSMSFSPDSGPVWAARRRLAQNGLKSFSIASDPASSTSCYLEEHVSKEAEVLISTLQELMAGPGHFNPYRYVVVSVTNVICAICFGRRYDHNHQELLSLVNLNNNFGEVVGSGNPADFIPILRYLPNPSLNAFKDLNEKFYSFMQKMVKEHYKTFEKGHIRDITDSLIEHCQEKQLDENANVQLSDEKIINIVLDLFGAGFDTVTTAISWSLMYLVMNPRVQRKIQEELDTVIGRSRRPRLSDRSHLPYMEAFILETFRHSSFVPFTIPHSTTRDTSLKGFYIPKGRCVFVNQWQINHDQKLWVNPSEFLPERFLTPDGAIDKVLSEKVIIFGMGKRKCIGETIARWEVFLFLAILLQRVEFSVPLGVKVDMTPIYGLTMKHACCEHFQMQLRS
Test: CYP1A1 inhibition in live HEK293 cells overexpressing CYP1A1
Type: cell-based
Conditions: live HEK293 cells overexpressing CYP1A1, % inhibition of CYP1A1 at 10 μM (Mean ± SD) HEK293 cells

inhibition at 10 µM: 81%
SMILES: COc1c2occc2c(OC)c2c(=O)cc(C)oc12 [compound 1, Khellin, reference compound]
